Test results: paper PMC10395006 (Archives of toxicology, 2022)

Chains of the proteins cited; added tags and fusions are not shown.
UniProt P05177, whole entry: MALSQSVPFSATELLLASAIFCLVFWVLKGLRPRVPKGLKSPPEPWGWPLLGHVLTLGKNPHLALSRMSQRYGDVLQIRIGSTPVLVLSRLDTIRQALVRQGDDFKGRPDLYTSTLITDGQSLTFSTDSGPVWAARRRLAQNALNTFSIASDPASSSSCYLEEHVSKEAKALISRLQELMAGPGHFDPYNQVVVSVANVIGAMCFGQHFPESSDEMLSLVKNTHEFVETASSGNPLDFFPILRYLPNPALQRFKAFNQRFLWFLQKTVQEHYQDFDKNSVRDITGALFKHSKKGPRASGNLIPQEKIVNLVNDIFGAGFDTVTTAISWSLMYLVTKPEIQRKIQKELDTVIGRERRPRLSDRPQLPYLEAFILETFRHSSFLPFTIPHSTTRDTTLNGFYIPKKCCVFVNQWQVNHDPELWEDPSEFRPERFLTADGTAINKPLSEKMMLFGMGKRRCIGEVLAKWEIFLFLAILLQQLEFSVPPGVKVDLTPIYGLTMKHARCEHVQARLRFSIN

Target: CYP1A2 (Homo sapiens, UniProt P05177)
Assay type: in vitro ADME
Settings: α-naphthoflavone 6 μM (CYP1A2 inhibitor), human liver microsomes

Compound: O=c1cc(-c2ccccc2)oc2c1ccc1ccccc12 [α-naphthoflavone, α-Naphthoflavone]
- effect on the formation of M1, M3, and M5: did not show significant effect
